Earlier results in US11959096B2, “Methods for selective inhibition of pluripotent stem cells” (THE MEDICAL COLLEGE OF WISCONSIN, INC., priority 2014, dated 2024).

By UniProt entry, the sequences of proteins in these tests, tags left out. Where a name states a change or a piece, a line headed by the entry shows the natural chain unless it says otherwise.
UniProt P43490: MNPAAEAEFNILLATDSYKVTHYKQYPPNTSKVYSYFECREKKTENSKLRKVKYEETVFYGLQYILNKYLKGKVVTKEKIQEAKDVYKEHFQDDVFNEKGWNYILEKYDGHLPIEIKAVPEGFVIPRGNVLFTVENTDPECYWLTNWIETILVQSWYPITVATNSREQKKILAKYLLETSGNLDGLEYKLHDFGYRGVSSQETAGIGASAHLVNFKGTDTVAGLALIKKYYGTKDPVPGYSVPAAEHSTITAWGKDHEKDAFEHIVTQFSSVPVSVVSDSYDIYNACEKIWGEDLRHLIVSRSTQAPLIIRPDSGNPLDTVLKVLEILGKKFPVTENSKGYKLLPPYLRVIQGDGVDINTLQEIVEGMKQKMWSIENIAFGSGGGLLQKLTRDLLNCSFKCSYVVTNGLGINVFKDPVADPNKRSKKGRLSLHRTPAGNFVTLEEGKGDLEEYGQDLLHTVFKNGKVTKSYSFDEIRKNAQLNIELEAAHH

Target: NAMPT (Homo sapiens, UniProt P43490)
Conditions: purified enzyme assay; cited from earlier work

## 4-[[[[4-(1,1-Dimethylethyl)phenyl]sulfonyl]amino]methyl]-N-3-pyridinyl-benzamide [STF-31]
  IC50: 19 nM
